Reference: patent US20250221431A1, “METHOD FOR FEEDING BLACK SOLDIER FLY LARVAE WITH SELENIUM-RICH BACTERIA SOLUTION” (priority 2024, published 2025)

Tested on: black soldier fly larvae
Settings: Example 2, chicken feed, 4-day-old larvae, selenium content added 100.00 mg/kg
Description: Step 3, 4-day-old black soldier fly larvae were selected to be fed; the selenium-rich bacteria solution was added to chicken feed to enable the chicken feed to have a total selenium content of 100, 200, 300 mg/kg (wet weight), respectively; a moisture content of the chicken feed was controlled to 60%, then the black soldier fly larvae were fed with the chicken feed at a ratio of dry chicken feed to larva being 116 g per 150 larvae (the ratio of dry feed to larva was 0.77) in conditions of 28° C.-30° C. feeding temperature and 60%-70% air humidity level, and feeding was terminated at the end of the fifth instar of the larvae.
The effects of the selenium-rich bacteria solution on breeding of the selenium-rich black soldier flies were determined according to the indicators, i.e. growth performance of the larvae (survival rate, larva weight), bioconversion efficiency, and selenium content in the larva.
After the feeding was terminated, the obtained larvae were screened, washed, wiped dry and weighed. The survival rate was calculated according to the number of live larvae. The larvae were subjected to starvation for 1 day, then dried and weighed. The residual feed was also dried and weighed. Thereby, bioconversion efficiency was calculated according to the following: bioconversion efficiency=dry weight of the larvae/(dry weight of the added feed−dry weight of the residual feed)×100%. […]

Question: For `O=[Se](O)O` [sodium selenite], which Survival rate is on record?
Answer: The Survival rate was 94.77 ± 0.51%.
